Consider 34 molecules from PubChem BioAssay AID2549 (National Center for Advancing Translational Sciences (NCATS), 2010).

By UniProt entry, the sequences of proteins in these tests, tags left out. Where a name states a change or a piece, a line headed by the entry shows the natural chain unless it says otherwise.
UniProt P46063: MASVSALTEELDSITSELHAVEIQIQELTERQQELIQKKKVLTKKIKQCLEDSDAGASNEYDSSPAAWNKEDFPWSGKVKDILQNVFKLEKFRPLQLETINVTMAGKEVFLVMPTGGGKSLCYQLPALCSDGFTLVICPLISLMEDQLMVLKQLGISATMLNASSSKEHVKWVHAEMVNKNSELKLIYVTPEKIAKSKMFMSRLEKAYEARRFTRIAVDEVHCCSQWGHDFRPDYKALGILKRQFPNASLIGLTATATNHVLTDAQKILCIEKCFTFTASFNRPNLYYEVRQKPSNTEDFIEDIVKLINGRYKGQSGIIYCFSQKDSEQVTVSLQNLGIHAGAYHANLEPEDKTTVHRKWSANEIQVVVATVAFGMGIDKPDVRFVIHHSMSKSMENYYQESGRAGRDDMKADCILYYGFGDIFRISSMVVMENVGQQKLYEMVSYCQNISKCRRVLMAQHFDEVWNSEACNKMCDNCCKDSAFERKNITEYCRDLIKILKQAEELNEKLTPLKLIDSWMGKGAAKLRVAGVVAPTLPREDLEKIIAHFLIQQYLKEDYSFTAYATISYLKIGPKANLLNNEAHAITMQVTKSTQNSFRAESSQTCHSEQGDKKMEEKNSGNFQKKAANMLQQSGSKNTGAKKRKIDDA

The list shows a part of the results, in another mix than the full data. Active and inactive are the calls of the source. Calls come from the whole dose curve; as a rule, active = well fitted inhibition curve with a large enough effect; inconclusive = small, poorly fitted or top-dose-only effect; inactive = flat fitted curve, though single readings scatter.

For this assay, the target named is ATP-dependent DNA helicase Q1 (Homo sapiens) (UniProt P46063). The assay can be described thus: qHTS Assay for Inhibitors of RecQ-Like Dna Helicase 1 (RECQ1). Note: nearly all actives have a fitted effect of over 30% in size. Particulars: RECQ1 DNA unwinding, red fluorescence kinetic read; series mostly up to 57.3 µM; activity, negative = inhibition: at the top concentration. An excerpt:
Survival of cells and the faithful propagation of the genome depend on elaborate mechanisms of detecting and repairing DNA damage. Treatment of advanced cancer relies on radiation therapy or chemotherapy, which kill cancer cells by causing extensive DNA damage. It is often found, that cancer cells develop resistance to therapy through enhanced activity of DNA repair functions; this has led to an increased interest in developing drugs that interfere with DNA repair, which could sensitize cancer cells to conventional therapy.
This validation qHTS assay pertains to human RECQ1, which is important in resolving abnormal DNA structures formed during replication or homologous recombination. Shutting down the expression of RECQ1 leads to chromosomal instability and higher radiation sensitivity in cultured cells.
The validation assay was a fluorescence quenching based kinetic qHTS for RECQ1 Helicase DNA unwinding. The activity was measured as ATP-dependent separation of a 20-bp DNA duplex extended by 30-nt single-stranded tails (forked duplex). The forked DNA substrate was tagged with rhodamine fluorophore (carboxytetramethyl rhodamine, TAMRA) and BHQ-2 (Black Hole Quencher 2) dark quencher. Strand separation results in an increase in the fluorescence of TAMRA (excitation 525 nm, emission 598 nm). This substrate construct operates in a red-shifted region where very few compound library members have been noted to fluoresce (PubChem AIDs 593 and 594). An additional feature of the assay is the inclusion of 2.5 ug/ml poly (dIdC), to reduce interference by compounds such as DNA intercalators, a major source of false inhibitors.
Opher Gileadi, Structural Genomics Consortium, University of Oxford
Screening Center PI: Austin, C.P.
Screening Center: NIH Chemical Genomics Center [NCGC]
Three uL of reaction buffer (25 mM Tris-HCl (pH 8.0), 5 mM NaCl, 2 mM MgCl2, 1mM DTT, 0.01% Tween- 20, and 2.5 ug/ml poly(dI-dC), including enzyme (50 nM RECQ1T1), were dispensed into a 1536-well Greiner black assay plate via solenoid-valve based nanoliter dispensers. Compounds (23 nl each in columns 5-48) and control (23 nl each in column 2 as dose-response) were transferred via a Kalypsys pintool equipped with a 1536-pin array. The plates were incubated for 15 min at room temperature, and then 1 ul of substrates (200 nM DNA and 2 mM ATP, final concentrations) was added to start the reaction. The plate was transferred into a ViewLux high-throughput CCD imager where the reaction progress was measured in a discontinuous kinetic mode (two reads spaced 2 hours apart, with intermediate room temperature incubation of the covered assay plate) by using standard red-fluorescence optics (excitation filter 525 nm, emission filter 598 nm). Enzyme-free and vehicle (DMSO) controls were included for signal normalization.
For orientation: qHTS replaces the single test concentration by a dilution series.
Take `COc1ccc2nc(NP(=O)(c3ccccc3)c3ccccc3)sc2c1`: the “activity, negative = inhibition” value was inactive: -18.2%.

For the molecule `COc1cc(I)ccc1[As](=O)(O)O`, the “activity, negative = inhibition” value was inactive: -3.86%.

On to `Cc1c2c(nc3ccccc13)SC(C(Cl)Cl)C2` (centres undefined), for which the “activity, negative = inhibition” value is inactive: -1.47%.

Turning to `O=C(OC1CN2CCC1CC2)C12CC3CC(CC(C3)C1)C2` (centres undefined), the “activity, negative = inhibition” value is inactive: -12.3%.

`Cc1cc(=O)[nH]c(N[N+](=O)[O-])n1`: the “activity, negative = inhibition” value was inactive: 1.51%.

Regarding `COc1ccc(N/C(=N/P(=O)(N2CCOCC2)N2CCOCC2)N2CCOCC2)cc1`, the “activity, negative = inhibition” value is inactive: -3.26%.

For the molecule `Cc1ccc(OP(=O)(Nc2ccc([N+](=O)[O-])cn2)Oc2ccc(C)cc2)cc1`, the molecule was classed as inactive.

Take `Cc1ccc2nc3c(c(C)c2c1)CC(C(Cl)Cl)S3` (centres undefined): the “activity, negative = inhibition” value was inactive: -2.51%.

With `C[As](=O)(O)c1cccc(C(=O)O)c1`, the molecule was classed as inactive.

As to `O=[As](O)(c1ccc(O)cc1)c1ccccc1O`, the “activity, negative = inhibition” value is inactive: -5.53%.

As for `CCN(CC)C(=S)SC(NC=O)C(Cl)(Cl)Cl` (centres undefined), the “activity, negative = inhibition” value was inactive: -14.3%.

For the molecule `CC(C)NC(=O)NP(=O)(Oc1ccccc1)Oc1ccccc1`, the call was inactive.

On to `O=[N+]([O-])c1cc([N+](=O)[O-])c(-c2ccn[nH]2)s1`, for which the “activity, negative = inhibition” value is inactive: 1.17%.

With `ClCCSc1nnc(-c2cccnc2)o1`, the “activity, negative = inhibition” value was inactive: 2.11%.

On to `CC(C)c1ccc(OP(=O)(Nc2ccccn2)Oc2ccccc2F)cc1` (centres undefined), for which the “activity, negative = inhibition” value is inactive: -3.08%.

In the case of `Cc1cc(SC(NC(=O)c2ccccc2)C(Cl)(Cl)Cl)nc(C(C)C)n1` (centres undefined), the “activity, negative = inhibition” value was inactive: -3.12%.

For the molecule `CCOC(=O)Nc1ccc([As](=O)(O)O)c(O)c1`, the molecule was called inactive.

As to `Cc1cc(SC(NC=O)C(Cl)(Cl)Cl)ncn1` (centres undefined), the “activity, negative = inhibition” value is inactive: 24.1%.

For the molecule `O=P(Nc1ccccn1)(c1cccc2ccccc12)c1cccc2ccccc12`, the molecule was called inactive.

As to `CN(N=O)C(=N)N[N+](=O)[O-]`, the “activity, negative = inhibition” value is inactive: -8.05%.

On to `O=[N+]([O-])c1ccc(Nc2ccc(Oc3ccc([N+](=O)[O-])cc3[N+](=O)[O-])cc2)c([N+](=O)[O-])c1`, for which the “activity, negative = inhibition” value is inactive: -1.02%.

Turning to `CCOC(=O)Nc1cccc([As](=O)(O)O)c1`, the “activity, negative = inhibition” value is inactive: -9.16%.

For `O=C(COc1ccccc1)OC1CN2CCC1CC2` (centres undefined), the “activity, negative = inhibition” value is inactive: -2.18%.

Regarding `COP1(=S)c2c(C)nn(CCC#N)c2N=C(c2ccc(F)cc2)N1C` (centres undefined), the “activity, negative = inhibition” value was inactive: -16%.

On to `CCC(C)N(CC(C)C)C(=S)SC(NC(C)=O)C(Cl)(Cl)Cl` (centres undefined), for which the “activity, negative = inhibition” value is inactive: -2.63%.

Regarding `CCOC(=O)c1ccc(NC(=O)C(C)(CCl)SC)cc1` (centres undefined), the “activity, negative = inhibition” value was inactive: -8.19%.

Turning to `Clc1n[nH]nc1-c1nn[nH][15n]1`, the “activity, negative = inhibition” value is inactive: -1.31%.

In the case of `CC(C)(C)C(=O)NC(Sc1ncccn1)C(Cl)(Cl)Cl` (centres undefined), the “activity, negative = inhibition” value was inactive: 23.6%.

With `O=P1(Nc2ccccn2)COc2ccccc2OC1`, the “activity, negative = inhibition” value was inactive: -0.409%.

On to `CN(CCCl)Cc1cc(Cl)c(NC2=NCCN2)c(Cl)c1`, for which the Potency entry was “inactive”.

On to `CCOP(=O)(Nc1ccc(C)cn1)OCC`, for which the result was inactive.

As for `CN(C(=O)Cc1ccc(Cl)c(Cl)c1)[C@@H]1CCCC[C@H]1N1CCCC1`, the Potency entry was “inactive”.

Turning to `CC(C)/C=N\N=C(\N)N[N+](=O)[O-]`, the “activity, negative = inhibition” value was inactive: -1.48%.

In the case of `O=[As](O)(c1ccccc1Br)c1ccccc1Br`, the “activity, negative = inhibition” value is inactive: -13.8%.
